Test results as given in US20230372307A1, “COMBINATION THERAPY USING BAX ACTIVATOR AGENT” (Albert Einstein College of Medicine, priority 2020, published 2023).
Like-named read-outs stand apart in the source and are kept apart here.

Amino acid sequences for entries named in this document (tags omitted).
UniProt Q07812, whole entry: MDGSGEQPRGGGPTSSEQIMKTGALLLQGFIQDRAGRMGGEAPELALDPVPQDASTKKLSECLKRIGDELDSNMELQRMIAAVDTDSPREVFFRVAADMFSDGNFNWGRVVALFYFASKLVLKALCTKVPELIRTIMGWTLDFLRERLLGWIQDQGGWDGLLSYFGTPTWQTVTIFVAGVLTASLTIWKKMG

Experiments:
[1] = oral 200 mg/Kg daily dose, mice
BAX:BCL-XL complexes = target: T1, BAX:BCL-XL complexes (Homo sapiens, UniProt Q07812); experiment: BAX co-immunoprecipitation and immunoblotting; assay type: cell-based; conditions: 4 hrs treatment
T1 construct: endogenous in cells; host or cells: BxPC-3, SW480, Calu-6

BAX [2] = target: T2, BAX (Homo sapiens, UniProt Q07812); conditions: for concentration achieving cytosolic BAX translocation to the mitochondria: 4 hr
cellular BAX = cellular BAX (Homo sapiens, UniProt Q07812); conditions: BxPC-3 cells, 40 μM, 15 min
BAX [3] = target: T2, BAX; experiment: BIM SAHB-BAX competition fluorescence polarization assay (FPA); assay type: binding; parameters: serial dilutions of full-length BAX; made in house; host or cells: Escherichia coli
Protocol: PRODUCTION OF RECOMBINANT BAX PROTEIN. […] BAX wild type was purified by size-exclusion chromatography in a buffer containing 20 mM HEPES pH 7.2, 150 mM KC1, 1 mM DTT. Superdex 75 10/300 GL and 200 10/300 GL (GE Healthcare) columns were used.
FLUORESCENCE POLARIZATION BINDING As SAYS. […] Firstly, direct binding isotherms were generated by incubating FITC-BIM SAHBA2 (50 nM) with serial dilutions of full-length BAX and fluorescence polarization was measured at 20 min on a F200 PRO microplate reader (TECAN). Subsequently, in competition assays, a serial dilution of small-molecule or acetylated BIM SAHBA2 (Ac-BIM SAHB) was combined with FITC-BIM SAHBA2 (50 nM), followed by the addition of recombinant protein at EC75 concentration, as determined by the direct binding assay (BAX: 500 nM). EC50 and IC50 values were calculated by nonlinear regression analysis of competitive binding curves using Graphpad Prism software.

| Structure (SMILES) | tolerability / survival [1] | BAX:BCL-XL complexes by BAX co-immunoprecipitation (BAX:BCL-XL complexes) | concentration achieving cytosolic BAX translocation to the mitochondria (BAX [2]; BxPC-3 cells (printed BxPC-2)) [µM] | concentration promoting cytosolic BAX translocation to the mitochondria (BAX [2]; BxPC-3 cells, 18 hrs) [µM] | concentration achieving cytosolic BAX translocation to the mitochondria (BAX [2]; SW480 cells) [µM] | melting temperature of cellular BAX (CETSA) (cellular BAX) | IC50 (BAX [3]) [nM] |
| --- | --- | --- | --- | --- | --- | --- | --- |
| Cc1nc(N/N=C2\C(=O)N(c3nc(-c4ccccc4)cs3)N=C2c2ccccc2)sc1C [BTSA1.2, 4-(2-(4,5-dimethylthiazol-2-yl)hydrazono)-5-phenyl-2-(4-phenyl-thiazol-2-yl)-2,4-dihydro-3H-pyrazol-3-one] | mice survived 5 daily doses without obvious toxic effects | only BAX:BCL-XL complexes but not BAX:MCL-1 complexes increased upon BTSA1.2 treatment | 10 | 2.5 to 5 | 10 | significant increase in the melting temperature of cellular BAX |  |
| O=C1/C(=N\Nc2nccs2)C(c2ccccc2)=NN1c1nc(-c2ccccc2)cs1 [BTSA1] |  |  |  |  |  |  | 159 |
